The text below walks through data of PubChem BioAssay AID841 (Emory University Molecular Libraries Screening Center, 2007).

Molecules are shown by their SMILES. This is a selection; strong and weak results do not stand in their true shares. Some tests of the compounds listed are not included; inactive here does not mean inactive elsewhere. Active and inactive are the calls of the source. Rule as the data show it: active = protection mostly above about 24% (no sharp cut-off); inactive = mostly below about 26%.

The assay in a line: compounds protecting cells from measles virus cytopathic effect, primary screen, measles RdRp inhibitor project, single point, MLSMR library, absorbance (AID 841). As to conditions: Measles virus-infected cells, CPE protection, at 4 µM, hits give high values.
As to `CC(C)N1C(=O)CC2(CCN(CCOC(=O)C(O)(c3ccccc3)c3ccccc3)CC2)C1=O`, the protection (pct of control) was inactive: 3.71%.
On to `CCN1CCCC(OC(=O)C2(O)c3ccccc3C=Cc3ccccc32)C1` (stereo not given), for which the protection (pct of control) was inactive: 10.6%.
The value for `CN(C)C1CCCC1OC(=O)C(O)(c1ccccc1)c1ccccc1` (stereo not given) was inactive: 9.53%; that for `CN(C)c1cccc(C(=O)NCC2(N(C)C)CCCCC2)c1` was active: 44.5%; that for `O=C(OC1CN2CCC1CC2)C(CO)(c1ccccc1)c1ccccc1` (stereo not given) was inactive: 2.66%.
